Where two headings read alike, the source gives them in different places.
What was measured:
NE transporters [h(NET)] = NE transporters [h(NET)] (Homo sapiens, UniProt P23975); assay: Inhibition of [3H]norepinephrine uptake into HEK293 cells stably expressing hNET
[1] = target: human DA transporters [(h)DAT] (Homo sapiens, UniProt Q01959); assay: Inhibition of [3H]dopamine uptake into HEK293 cells stably expressing hDAT
[2] = target: 5HT transporters [(h)SERT] (Homo sapiens, UniProt P31645); assay: Inhibition of [3H]serotonin uptake into HEK293 cells stably expressing hSERT

The chains behind the UniProt entries cited, without tags or fusion partners.
UniProt P23975, whole entry: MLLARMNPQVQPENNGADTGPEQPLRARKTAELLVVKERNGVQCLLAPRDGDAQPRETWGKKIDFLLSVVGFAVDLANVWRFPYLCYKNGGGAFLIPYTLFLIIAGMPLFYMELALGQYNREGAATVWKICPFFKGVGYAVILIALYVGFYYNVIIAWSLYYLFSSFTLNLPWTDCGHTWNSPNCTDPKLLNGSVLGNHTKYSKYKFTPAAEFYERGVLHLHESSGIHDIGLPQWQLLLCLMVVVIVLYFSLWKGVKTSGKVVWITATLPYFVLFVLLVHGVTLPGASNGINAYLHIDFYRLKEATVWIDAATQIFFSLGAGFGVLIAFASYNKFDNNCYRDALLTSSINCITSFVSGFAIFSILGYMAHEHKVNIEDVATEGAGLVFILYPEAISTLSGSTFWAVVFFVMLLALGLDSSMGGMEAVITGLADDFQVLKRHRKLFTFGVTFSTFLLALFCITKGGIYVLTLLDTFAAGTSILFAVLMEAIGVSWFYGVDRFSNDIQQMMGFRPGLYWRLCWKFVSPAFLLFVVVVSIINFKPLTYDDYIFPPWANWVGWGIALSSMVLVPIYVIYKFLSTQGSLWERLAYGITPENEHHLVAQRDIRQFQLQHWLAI
UniProt Q01959, whole entry: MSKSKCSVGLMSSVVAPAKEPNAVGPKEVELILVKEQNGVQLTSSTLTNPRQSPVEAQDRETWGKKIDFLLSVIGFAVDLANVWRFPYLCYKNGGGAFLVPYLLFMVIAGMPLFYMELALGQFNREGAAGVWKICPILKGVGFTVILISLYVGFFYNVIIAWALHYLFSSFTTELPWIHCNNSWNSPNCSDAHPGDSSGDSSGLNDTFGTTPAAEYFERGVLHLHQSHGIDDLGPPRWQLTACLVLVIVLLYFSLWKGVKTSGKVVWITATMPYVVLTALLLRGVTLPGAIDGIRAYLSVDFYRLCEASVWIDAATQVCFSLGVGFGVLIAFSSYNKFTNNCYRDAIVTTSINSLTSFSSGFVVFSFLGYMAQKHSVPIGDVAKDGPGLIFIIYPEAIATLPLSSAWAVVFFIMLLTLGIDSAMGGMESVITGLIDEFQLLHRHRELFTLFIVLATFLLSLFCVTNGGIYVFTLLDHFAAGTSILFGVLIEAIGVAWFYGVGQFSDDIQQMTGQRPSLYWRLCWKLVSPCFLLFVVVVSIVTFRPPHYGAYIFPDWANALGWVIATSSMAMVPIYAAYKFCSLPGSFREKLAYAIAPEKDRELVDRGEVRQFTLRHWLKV
UniProt P31645, whole entry: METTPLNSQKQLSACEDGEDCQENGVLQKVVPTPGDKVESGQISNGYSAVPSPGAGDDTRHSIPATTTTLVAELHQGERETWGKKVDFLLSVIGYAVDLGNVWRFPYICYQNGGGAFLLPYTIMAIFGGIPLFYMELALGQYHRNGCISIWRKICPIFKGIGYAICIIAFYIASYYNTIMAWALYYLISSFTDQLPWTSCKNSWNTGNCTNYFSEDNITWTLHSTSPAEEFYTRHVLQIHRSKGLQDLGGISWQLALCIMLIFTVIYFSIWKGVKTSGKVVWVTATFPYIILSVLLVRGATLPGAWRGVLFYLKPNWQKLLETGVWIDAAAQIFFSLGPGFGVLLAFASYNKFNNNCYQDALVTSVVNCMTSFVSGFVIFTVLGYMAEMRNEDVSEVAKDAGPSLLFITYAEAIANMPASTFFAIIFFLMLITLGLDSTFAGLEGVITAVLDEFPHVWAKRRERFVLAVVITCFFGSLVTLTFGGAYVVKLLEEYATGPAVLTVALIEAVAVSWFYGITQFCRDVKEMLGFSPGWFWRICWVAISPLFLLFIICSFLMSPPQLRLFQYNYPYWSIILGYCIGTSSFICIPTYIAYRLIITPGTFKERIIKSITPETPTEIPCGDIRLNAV

Which IC50 (NE transporters [h(NET)]) does the source give for `CC(NC(C)(C)C)C(=O)c1cccc(Cl)c1` (racemic) [Compound 2, (±)-2-tert-butylamino-3′-chloropropiophenone, reference compound] here?
The IC50 was 1.85 µM.

With `C[C@@H]1NC(C)(C)CO[C@@]1(O)c1cccc(Cl)c1` [Compound (2S,3S)-4a, (2S,3S)-2-(3-Chlorophenyl)-3,5,5-trimethylmorpholin-2-ol, reference compound] as the compound, how does the IC50 ([1]; read-out: monoamine uptake inhibition IC50 [3H]DA, mean ± standard error of three independent experiments) read?
The IC50 was 0.63 µM.

What about the IC50 [2] of the same compound?
The IC50 was > 10 µM.

What about the “activity at the SERT / 5HT uptake inhibition, in words” value [2] of the same compound?
Its value is “Neither (2R,3R)-4a nor (2S,3S)-4a shows activity for 5HT uptake”.

For `C[C@H]1NC(C)(C)CO[C@]1(O)c1cccc(Cl)c1` [Compound (2R,3R)-4a, (2R,3R)-2-(3-Chlorophenyl)-3,5,5-trimethylmorpholin-2-ol, reference compound], which IC50 ([1]; IC50 DA uptake inhibition) is on record?
The IC50 was > 10 µM.

What about the IC50 ([1]; monoamine uptake inhibition IC50 [3H]DA, mean ± standard error of three independent experiments) of the same compound?
Its IC50 is > 10 µM.

What about the IC50 [2] of the same compound?
The IC50 was > 10 µM.

Source: patent US8906908B2 (dated 2014)
